In patent US7713964B2, “Methods for treating asthmatic conditions” (Wyeth LLC, priority 2001, dated 2010):

Molecular target: T1, cPLA2 (Homo sapiens, UniProt P47712)
T1 sequence (P47712 1-749): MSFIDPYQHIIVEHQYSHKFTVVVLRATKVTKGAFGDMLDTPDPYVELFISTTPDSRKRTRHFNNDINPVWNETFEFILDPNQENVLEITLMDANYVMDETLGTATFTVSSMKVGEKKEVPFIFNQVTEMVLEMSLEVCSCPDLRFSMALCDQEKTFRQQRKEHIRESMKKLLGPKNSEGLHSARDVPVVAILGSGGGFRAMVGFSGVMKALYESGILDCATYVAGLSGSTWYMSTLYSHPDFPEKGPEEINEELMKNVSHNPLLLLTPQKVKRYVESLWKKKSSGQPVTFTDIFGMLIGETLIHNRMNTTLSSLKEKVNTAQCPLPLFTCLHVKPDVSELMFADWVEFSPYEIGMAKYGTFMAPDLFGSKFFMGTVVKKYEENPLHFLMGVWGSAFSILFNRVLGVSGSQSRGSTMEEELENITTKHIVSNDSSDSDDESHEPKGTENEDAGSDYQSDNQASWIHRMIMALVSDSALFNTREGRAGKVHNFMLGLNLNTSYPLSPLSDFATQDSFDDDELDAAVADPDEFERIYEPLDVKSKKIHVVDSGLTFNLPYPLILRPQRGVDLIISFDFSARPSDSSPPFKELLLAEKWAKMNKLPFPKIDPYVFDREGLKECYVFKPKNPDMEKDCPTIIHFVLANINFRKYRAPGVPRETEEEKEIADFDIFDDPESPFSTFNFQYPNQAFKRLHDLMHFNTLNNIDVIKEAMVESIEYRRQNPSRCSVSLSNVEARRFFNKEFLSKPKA
Experiment: Coumarine Assay (hydrolysis of 7-hydroxycoumarinyl 6-heptenoate by cPLA2, fluorometric)
Type: biochemical
Conditions: 60 μM 7-hydroxycoumarinyl 6-heptenoate substrate, 4 μg cPLA2, pH 7.5; excitation 360 nm, emission 460 nm; read-out: Coumarin IC50

Question: Which IC50 does the source give for “4-(2-{1-benzhydryl-5-chloro-2-[2-(2-methoxy-phenyl-sulfanylmethanesulfonylamino)-ethyl]-1H-indol-3-yl}-ethoxy)-benzoic acid [Example 83]” here?
Answer: The IC50 was 450 nM.
